In ChEMBL document CHEMBL1132920, “Syntheses of (R)- and (S)-2- and 6-fluoronorepinephrine and (R)- and (S)-2- and 6-fluoroepinephrine: effect of stereochemistry on fluorine-induced adrenergic selectivities” (J Med Chem, 2000) one finds Ki data, which are given here for three molecules.

The chains behind the UniProt entries cited, without tags or fusion partners. Where a name states a change or a piece, a line headed by the entry shows the natural chain unless it says otherwise.
UniProt P22086: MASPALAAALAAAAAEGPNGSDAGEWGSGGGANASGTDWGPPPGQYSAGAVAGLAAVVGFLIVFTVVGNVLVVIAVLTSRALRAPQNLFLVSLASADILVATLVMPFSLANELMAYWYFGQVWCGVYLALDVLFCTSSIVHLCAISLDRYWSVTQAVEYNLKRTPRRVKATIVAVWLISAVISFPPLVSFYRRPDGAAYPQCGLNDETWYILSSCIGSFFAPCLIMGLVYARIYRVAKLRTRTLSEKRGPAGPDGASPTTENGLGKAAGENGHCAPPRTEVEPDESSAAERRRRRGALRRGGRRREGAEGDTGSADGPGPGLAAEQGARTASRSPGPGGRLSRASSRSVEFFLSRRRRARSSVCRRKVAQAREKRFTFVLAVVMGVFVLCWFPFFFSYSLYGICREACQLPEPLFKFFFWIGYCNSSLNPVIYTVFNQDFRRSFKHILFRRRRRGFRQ
UniProt P19328: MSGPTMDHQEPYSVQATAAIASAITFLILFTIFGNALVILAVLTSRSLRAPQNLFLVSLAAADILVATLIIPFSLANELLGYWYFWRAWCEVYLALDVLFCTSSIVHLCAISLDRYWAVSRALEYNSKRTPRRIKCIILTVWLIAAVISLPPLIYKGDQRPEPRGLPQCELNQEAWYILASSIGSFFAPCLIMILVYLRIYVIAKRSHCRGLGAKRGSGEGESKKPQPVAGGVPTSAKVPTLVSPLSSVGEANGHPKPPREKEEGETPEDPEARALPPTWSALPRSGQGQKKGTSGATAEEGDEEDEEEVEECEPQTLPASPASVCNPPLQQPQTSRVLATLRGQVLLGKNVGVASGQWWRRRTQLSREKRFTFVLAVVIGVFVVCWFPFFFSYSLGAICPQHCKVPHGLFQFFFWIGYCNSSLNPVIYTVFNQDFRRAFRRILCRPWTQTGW
UniProt P22909: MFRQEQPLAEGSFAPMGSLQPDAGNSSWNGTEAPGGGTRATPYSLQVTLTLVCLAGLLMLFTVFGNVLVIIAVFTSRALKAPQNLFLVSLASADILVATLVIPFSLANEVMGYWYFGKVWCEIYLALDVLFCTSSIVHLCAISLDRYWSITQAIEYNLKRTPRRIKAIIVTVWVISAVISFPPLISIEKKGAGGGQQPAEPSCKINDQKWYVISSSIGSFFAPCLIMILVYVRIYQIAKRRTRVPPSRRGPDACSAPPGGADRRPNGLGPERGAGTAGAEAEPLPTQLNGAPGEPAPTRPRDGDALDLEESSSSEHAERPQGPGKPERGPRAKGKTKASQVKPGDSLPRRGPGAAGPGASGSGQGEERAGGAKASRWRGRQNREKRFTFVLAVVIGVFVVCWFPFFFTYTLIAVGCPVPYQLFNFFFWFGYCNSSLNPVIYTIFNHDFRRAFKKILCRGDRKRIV
UniProt P15823: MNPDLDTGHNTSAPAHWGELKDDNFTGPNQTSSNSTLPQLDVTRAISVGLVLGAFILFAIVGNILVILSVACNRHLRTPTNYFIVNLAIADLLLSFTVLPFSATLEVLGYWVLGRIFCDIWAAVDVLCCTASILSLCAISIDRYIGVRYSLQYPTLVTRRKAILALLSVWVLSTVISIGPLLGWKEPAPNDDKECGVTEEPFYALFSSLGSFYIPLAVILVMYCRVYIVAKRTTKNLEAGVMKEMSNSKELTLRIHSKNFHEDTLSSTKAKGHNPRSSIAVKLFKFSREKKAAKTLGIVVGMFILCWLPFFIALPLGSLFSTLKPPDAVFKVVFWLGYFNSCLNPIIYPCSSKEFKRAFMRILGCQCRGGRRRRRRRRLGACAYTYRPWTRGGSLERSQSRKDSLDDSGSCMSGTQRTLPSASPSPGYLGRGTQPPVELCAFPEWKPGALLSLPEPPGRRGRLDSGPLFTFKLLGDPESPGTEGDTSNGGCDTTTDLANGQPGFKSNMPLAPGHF
UniProt P23944: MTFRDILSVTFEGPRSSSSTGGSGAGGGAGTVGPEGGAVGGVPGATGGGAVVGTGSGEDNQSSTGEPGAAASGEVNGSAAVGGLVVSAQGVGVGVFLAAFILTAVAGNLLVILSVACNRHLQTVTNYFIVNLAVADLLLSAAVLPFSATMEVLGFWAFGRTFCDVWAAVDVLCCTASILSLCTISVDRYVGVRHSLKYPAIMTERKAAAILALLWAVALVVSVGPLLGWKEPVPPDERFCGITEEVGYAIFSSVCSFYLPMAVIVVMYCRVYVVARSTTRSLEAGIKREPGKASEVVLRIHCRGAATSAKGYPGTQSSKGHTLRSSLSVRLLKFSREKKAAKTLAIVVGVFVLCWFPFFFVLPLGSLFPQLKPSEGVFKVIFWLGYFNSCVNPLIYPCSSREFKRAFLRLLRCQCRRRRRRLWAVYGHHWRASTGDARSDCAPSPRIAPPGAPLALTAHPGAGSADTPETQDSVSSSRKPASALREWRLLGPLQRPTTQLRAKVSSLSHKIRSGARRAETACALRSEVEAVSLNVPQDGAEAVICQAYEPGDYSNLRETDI
UniProt P43140: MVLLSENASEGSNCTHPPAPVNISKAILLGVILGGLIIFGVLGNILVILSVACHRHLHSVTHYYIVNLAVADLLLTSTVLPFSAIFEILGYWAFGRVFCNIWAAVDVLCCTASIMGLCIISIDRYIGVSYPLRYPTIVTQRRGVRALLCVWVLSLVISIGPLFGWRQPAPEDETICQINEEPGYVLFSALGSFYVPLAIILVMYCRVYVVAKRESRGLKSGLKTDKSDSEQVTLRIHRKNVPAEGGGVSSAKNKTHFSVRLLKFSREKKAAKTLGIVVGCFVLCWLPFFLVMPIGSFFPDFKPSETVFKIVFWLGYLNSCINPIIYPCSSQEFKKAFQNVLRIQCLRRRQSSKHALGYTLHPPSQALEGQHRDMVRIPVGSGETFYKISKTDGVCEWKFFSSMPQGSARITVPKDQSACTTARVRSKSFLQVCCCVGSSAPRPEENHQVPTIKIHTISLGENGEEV

The target in assay [1] is Adrenergic receptor alpha-2 (Rattus norvegicus, UniProt P22086+P19328+P22909). The assay is described as follows: Binding of [3H]clonidine to alpha-2-adrenergic receptor of rat cerebral cortical membranes. The format is cell membranes, Membrane.
Assay [2] addresses Adrenergic receptor alpha-1 (Rattus norvegicus, UniProt P15823+P23944+P43140). The assay is described as follows: Binding of [3H]prazosin to alpha-1 adrenergic receptor of rat cerebral cortical membranes. The format is cell membranes, Membrane. An outline of the steps: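 Affinity at alpha-1 adrenergic receptors measured as inhibition of specific [3H]prazosin binding to rat cerebral cortical membranes.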

SMILES strings stand for the structures.

What is called Ki is a dissociation constant, usually derived from enzyme kinetics or from competition with a known ligand. Higher therefore signals lower affinity. `CNC[C@H](O)c1ccc(O)c(O)c1` (racemic) [EPINEPHRINE]: the inhibition constant (Ki) in assay [1] was determined as 15 nM; in assay [2], 2.8 µM.

Take `CNC[C@H](O)c1ccc(O)c(O)c1` [EPINEPHRINE]: the values for the Ki in assay [1] and in assay [2] were 13 nM and 1.6 µM, respectively.

On to `CNC[C@@H](O)c1ccc(O)c(O)c1` [L-ADRENALINE], for which the Ki is 45 nM in assay [1] and ~ 20 uM in assay [2].
